In PubChem BioAssay AID2797 (The Scripps Research Institute Molecular Screening Center, 2010):
The list shows a part of the results, in another mix than the full data. Some structures show a salt or complex split into parts, the way the source records it. Active and inactive are the calls of the source.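 The calls were made as follows: active = activation above the mean activation of all tested compounds plus 3 SD, per screening run (cut at about 20% in these data); inactive = the rest.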

The chains behind the UniProt entries cited, without tags or fusion partners.
UniProt P37288, whole entry: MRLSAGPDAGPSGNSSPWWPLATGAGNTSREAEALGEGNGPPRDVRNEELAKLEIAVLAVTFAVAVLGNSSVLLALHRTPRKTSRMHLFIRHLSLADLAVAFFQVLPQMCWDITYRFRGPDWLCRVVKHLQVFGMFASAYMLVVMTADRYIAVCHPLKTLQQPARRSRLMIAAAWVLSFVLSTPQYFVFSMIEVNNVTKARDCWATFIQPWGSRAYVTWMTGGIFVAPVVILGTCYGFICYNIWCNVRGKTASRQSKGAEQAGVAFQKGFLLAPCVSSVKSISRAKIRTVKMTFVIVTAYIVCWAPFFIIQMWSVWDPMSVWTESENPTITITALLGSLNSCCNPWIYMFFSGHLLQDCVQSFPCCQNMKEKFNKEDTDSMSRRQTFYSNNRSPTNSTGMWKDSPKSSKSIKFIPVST

biological target: Vasopressin V1a receptor (Homo sapiens) (UniProt P37288); assay: agonists of human V1a receptor, primary screen, counter-screen for OXTR agonist project, fluorescence, CHO-V1R cells (AID 2797); details: Fluo-8 calcium fluorescence, agonist mode, at 3 µM, stronger effect = higher value, 0% DMSO, 100% 3 nM vasopressin;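 also: signal is peak over basal fluorescence ratio across a 100 second FLIPR read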

| Compound | activation |
| --- | --- |
| Cc1ccccc1NP(C)(=O)Nc1ccccc1C | inactive: 0.82% |
| CP(=O)(Nc1ccc2c(c1)OCCO2)Oc1ccccc1 (stereo unspecified) | inactive: 1.37% |
| CCOP(C)(=S)SCC(=O)NC(C)(CC)C(=O)O (stereo unspecified) | inactive: 0.06% |
| CP(=O)(Nc1ccc(SC(F)(F)F)cc1)Oc1ccc(F)cc1 (stereo unspecified) | inactive: 1.48% |
| O=[N+]([O-])c1cc([N+](=O)[O-])c(NCC2CCS(=O)(=O)C2)c([N+](=O)[O-])c1 (stereo unspecified) | inactive: 0.47% |
| COc1ccc(NP(C)(=O)Oc2ccccc2OC)cc1 (stereo unspecified) | inactive: -0.01% |
| CN(C)CCOC(=O)C(O)(c1ccccc1)C1CCCCC1 (stereo unspecified) | inactive: 1.16% |
| COc1ccc(OP(C)(=O)Nc2cccc(Br)c2)cc1 (stereo unspecified) | inactive: 2.09% |
| CCCCCOc1ccc(NP(C)(=O)Oc2ccc(Cl)cc2Cl)cc1 (stereo unspecified) | inactive: -0.2% |
| O=[N+]([O-])c1cc([N+](=O)[O-])c(OC2CCCCC2O)c([N+](=O)[O-])c1 (stereo unspecified) | inactive: -0.49% |
| CP(=O)(Nc1ccccc1)Oc1ccc(F)cc1 (stereo unspecified) | inactive: -0.2% |
| CCN(CC)CCCOC(=O)C(O)(c1ccccc1)C1CCCCC1 (stereo unspecified) | inactive: 1.13% |
| COc1ccc(OP(C)(=O)Nc2ccc(SC(F)(F)F)cc2)cc1 (stereo unspecified) | inactive: 0.48% |
| CCOC(=O)c1ccc(NP(C)(=O)Oc2ccc(F)cc2)cc1 (stereo unspecified) | inactive: 2.57% |
| COc1ccc2c(c1O)-c1c(O)c(OC)cc3c1[C@H](C2)[N+](C)(C)CC3.O=[N+]([O-])c1cc([N+](=O)[O-])c([O-])c([N+](=O)[O-])c1[O-] | inactive: 0.68% |
| O=C(OCCN1CCN(CCOCc2ccccc2)CC1)C(O)(c1ccccc1)c1ccccc1 | inactive: 2.98% |
| O=C(OC1CN2CCC1CC2)c1ccc([N+](=O)[O-])cc1 (stereo unspecified) | inactive: 0.79% |
| CC(C)c1ccc(OP(C)(=O)Nc2ccc(SC(F)(F)F)cc2)cc1 (stereo unspecified) | inactive: -0.08% |
| CP(=O)(Nc1ccccc1F)Oc1ccccc1 (stereo unspecified) | inactive: -0.01% |
| Cc1cc(C)cc(OP(C)(=O)Nc2ccccn2)c1 (stereo unspecified) | inactive: -1.06% |
| CP(=O)(Nc1cccc(Br)c1)Oc1ccccc1 (stereo unspecified) | inactive: 0.17% |

| Compound | activation |
| --- | --- |
| Cc1ccc(C)c(NP(C)(=O)Oc2ccccc2)c1 (stereo unspecified) | inactive: 1.04% |
| Cc1cc(C)cc(OP(C)(=O)Nc2ccc(C)cc2C)c1 (stereo unspecified) | inactive: 0.66% |
| CCOC(=O)c1ccc(NP(C)(=O)Oc2cc(C)cc(C)c2)cc1 (stereo unspecified) | inactive: 3.39% |
| COc1ccccc1OP(C)(=O)Nc1cccc(Br)c1 (stereo unspecified) | inactive: -0.66% |
| CC1=NCCc2c1[nH]c1ccccc21.O=[N+]([O-])c1cc([N+](=O)[O-])c(O)c([N+](=O)[O-])c1 | inactive: -0.79% |
| O=C(O)c1cccc(Nc2c([N+](=O)[O-])cc([N+](=O)[O-])cc2[N+](=O)[O-])c1 | inactive: 0.25% |
| CCCOc1ccc(NP(C)(=O)Oc2ccc(Cl)cc2)cc1 (stereo unspecified) | inactive: -0.78% |
| CP(=O)(Nc1ccc(SC(F)(F)F)cc1)Oc1ccccc1 (stereo unspecified) | inactive: 5.8% |
| COc1ccccc1OP(C)(=O)Nc1c(C)cccc1C (stereo unspecified) | inactive: -1.17% |
| CN1CCCCC1COC(=O)C1(O)c2ccccc2CCc2ccccc21 (stereo unspecified) | inactive: 1.97% |
| CCOC(=O)C(CC)C1=NC(C)(C)Cc2ccccc21.O=[N+]([O-])c1cc([N+](=O)[O-])c(O)c([N+](=O)[O-])c1 (stereo unspecified) | inactive: -0.42% |
| CC1=C2N=C(C=C3N=C(C(C)=C4[N-][C@@](C)([C@@H]5N=C1[C@](C)(CCC(=O)NC[C@@H](C)OP(=O)([O-])O[C@H]1[C@@H](O)[C@@H](n6cnc7cc(C)c(C)cc76)O[C@@H]1CO)[C@H]5CC(N)=O)[C@@](C)(CC(N)=O)[C@@H]4CCC(N)=O)[C@@](C)(CC(N)=O)[C@@H]3CCC(N)=O)C(C)(C)[C@@H]2CCC(N)=O.[C-]#N.[Co+3] | inactive: -0.15% |
| O=[N+]([O-])c1cc([N+](=O)[O-])c(Nc2nnnn2CCO)c([N+](=O)[O-])c1 | inactive: 1.14% |
| Cc1nc2ccc3ccccc3c2s1.O=[N+]([O-])c1cc([N+](=O)[O-])c(O)c([N+](=O)[O-])c1 | inactive: -1.16% |
| O=[N+]([O-])c1cc([N+](=O)[O-])c(-c2cnn(-c3ccccc3)c2)c([N+](=O)[O-])c1 | inactive: -0.48% |
| O=[N+]([O-])c1cc([N+](=O)[O-])c(-n2nnc3ccccc32)c([N+](=O)[O-])c1 | inactive: 1.18% |
| CP(=O)(Nc1ccccn1)Oc1ccc(Cl)cc1 (stereo unspecified) | inactive: 2.35% |
| CCOP(C)(=S)SCC(=O)NC(C)C(=O)O (stereo unspecified) | inactive: -0.07% |
| CCOC(=O)c1ccc(NP(C)(=O)Oc2ccc(OC)cc2)cc1 (stereo unspecified) | inactive: 0.69% |
| O=[N+]([O-])c1cc([N+](=O)[O-])c(O)c([N+](=O)[O-])c1.c1ccc(Oc2ccncc2)cc1 | inactive: 0.36% |
| Cc1cc(C)cc(OP(C)(=O)Nc2ccc(SC(F)(F)F)cc2)c1 (stereo unspecified) | inactive: 1.12% |

| Compound | activation |
| --- | --- |
| CP(=O)(NC(=O)Nc1ccccc1)Oc1ccccc1 (stereo unspecified) | inactive: 1.77% |
| CCc1ccc(OP(C)(=O)N2CCN(c3ccc([N+](=O)[O-])cc3)CC2)cc1 (stereo unspecified) | inactive: 3.75% |
| CP(=O)(Oc1ccccc1)OC(c1ccccc1)C(F)(F)F (stereo unspecified) | inactive: -0.68% |
| Cc1cccc(C)c1OP(C)(=O)Nc1ccc(SC(F)(F)F)cc1 (stereo unspecified) | inactive: 11.2% |
| CP(=O)(Nc1ccc(SC(F)(F)F)cc1)Oc1ccc(Cl)cc1 (stereo unspecified) | inactive: -0.61% |
| COc1ccccc1OP(C)(=O)Nc1ccccc1 (stereo unspecified) | inactive: -1.14% |
| CP(=O)(Nc1ccccc1Br)Oc1ccccc1 (stereo unspecified) | inactive: -0.13% |
| CP(=S)(Nn1cnnc1)Oc1ccccc1 (stereo unspecified) | inactive: 0.53% |
| COc1ccc(OP(C)(=O)Nc2cccc(F)c2)cc1 (stereo unspecified) | inactive: 2.19% |
| COc1ccccc1OP(C)(=O)Nc1cc(Cl)ccc1C (stereo unspecified) | inactive: -0.89% |
| Cc1cc(C)cc(OP(C)(N)=O)c1 (stereo unspecified) | inactive: 1.24% |
| CCOC(=O)c1ccc(NP(C)(=O)Oc2ccccc2)cc1 (stereo unspecified) | inactive: 1.34% |
| Cc1ccc(NP(C)(=O)Oc2ccccc2)c(C)c1 (stereo unspecified) | inactive: -0.23% |
| COc1ccccc1OP(C)(=O)Nc1ccc(C)cc1 (stereo unspecified) | inactive: 0.12% |
| Cc1cccc(C)c1OP(C)(N)=O (stereo unspecified) | inactive: 1.01% |
| CC(C)(C)c1ccc(OP(C)(=O)Nc2ccc(SC(F)(F)F)cc2)cc1 (stereo unspecified) | inactive: -0.29% |
| O=[N+]([O-])c1ccc2c(c1)C=Nc1ccccc1O2 | inactive: 2.37% |
| O=[N+]([O-])c1cc([N+](=O)[O-])c(Nc2cccnc2)c([N+](=O)[O-])c1 | inactive: 13.4% |
| CCN(CC)CCCOC(=O)C(O)(c1ccccc1)c1ccccc1 | inactive: 0.07% |
